Literature values in US11446267B2, “Nanoparticle compositions, methods of fabrication, and use for drug delivery” (DIGNITY HEALTH, priority 2017, dated 2022).

System: ALS patients
Settings: cited from earlier work

Nc1nc2ccc(OC(F)(F)F)cc2s1 [Riluzole]
extension of survival: 2-3 months
